Experimental data reported in patent US10435400B2, “2,4-disubstituted phenylene-1,5-diamine derivatives and applications thereof, and pharmaceutical compositions and pharmaceutically acceptable compositions prepared therefrom” (SHANGHAI HAIYAN PHARMACEUTICAL TECHNOLOGY CO., LTD., priority 2014, dated 2019).

Protein sequences, listed by entry. Tags and fused reporters are not part of them. Residues count along the entry.
UniProt P00533, 25-1210 T790M/L858R limits assumed: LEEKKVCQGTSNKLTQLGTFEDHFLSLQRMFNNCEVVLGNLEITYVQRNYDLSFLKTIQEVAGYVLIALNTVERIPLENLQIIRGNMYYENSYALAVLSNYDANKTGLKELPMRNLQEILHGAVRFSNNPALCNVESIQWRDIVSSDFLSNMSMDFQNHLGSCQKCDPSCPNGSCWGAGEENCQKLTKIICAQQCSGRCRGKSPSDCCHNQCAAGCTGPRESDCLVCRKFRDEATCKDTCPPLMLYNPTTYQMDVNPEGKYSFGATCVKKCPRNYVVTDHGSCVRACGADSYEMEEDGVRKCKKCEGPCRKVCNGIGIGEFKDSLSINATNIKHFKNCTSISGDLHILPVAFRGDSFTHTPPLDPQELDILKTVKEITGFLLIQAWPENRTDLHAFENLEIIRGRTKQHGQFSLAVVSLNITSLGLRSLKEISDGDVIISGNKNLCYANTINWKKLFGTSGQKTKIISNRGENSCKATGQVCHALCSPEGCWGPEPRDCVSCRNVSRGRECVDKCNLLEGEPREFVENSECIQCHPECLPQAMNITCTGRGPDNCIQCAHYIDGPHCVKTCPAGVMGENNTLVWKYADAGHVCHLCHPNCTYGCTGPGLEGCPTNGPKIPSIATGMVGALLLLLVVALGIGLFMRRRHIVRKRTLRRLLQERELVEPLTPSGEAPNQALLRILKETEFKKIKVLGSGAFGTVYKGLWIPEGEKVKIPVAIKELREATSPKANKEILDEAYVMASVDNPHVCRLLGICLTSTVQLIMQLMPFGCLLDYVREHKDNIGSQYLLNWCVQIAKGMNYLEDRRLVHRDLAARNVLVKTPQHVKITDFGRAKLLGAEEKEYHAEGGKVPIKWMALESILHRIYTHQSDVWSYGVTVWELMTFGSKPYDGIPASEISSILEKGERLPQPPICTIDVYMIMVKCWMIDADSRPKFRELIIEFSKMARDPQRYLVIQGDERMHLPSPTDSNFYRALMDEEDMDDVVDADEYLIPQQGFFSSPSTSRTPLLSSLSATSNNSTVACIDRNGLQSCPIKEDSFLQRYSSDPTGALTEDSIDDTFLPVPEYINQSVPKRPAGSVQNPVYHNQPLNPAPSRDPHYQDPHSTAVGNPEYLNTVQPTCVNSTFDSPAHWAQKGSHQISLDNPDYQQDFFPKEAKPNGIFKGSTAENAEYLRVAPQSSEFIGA

Molecular target: EGFR T790M/L858R kinase (Homo sapiens (Human), UniProt P00533, L858R/T790M)

| selectivity ratio | IC50 | SMILES |
| --- | --- | --- |
| 5.1 |  | C=CC(=O)Nc1cc(Nc2nccc(-c3cnc4c(ccn4C)c3)n2)c(OC)cc1N1CCC(N(C)C)CC1 [Compound Z-25] |
| 4.2 |  | C=CC(=O)Nc1cc(Nc2nccc(-c3cnc4c(ccn4C)c3)n2)c(OC)cc1N1CCN(C)CC1 [Compound Z-26] |
| 4.8 |  | C=CC(=O)Nc1cc(Nc2nccc(-c3cnc4c(ccn4C)c3)n2)c(OC)cc1N1CC(N(C)C)C1 [Compound Z-27] |
| 3.1 |  | C=CC(=O)Nc1cc(Nc2ncc(F)c(-c3cnc4c(ccn4C)c3)n2)c(OC)cc1N1CCC(N(C)C)CC1 [Compound Z-29] |
| 2 | 2 nM | C=CC(=O)Nc1cc(Nc2ncc(C(=O)OC)c(-c3cnc4c(ccn4C)c3)n2)c(OC)cc1N(C)CCN(C)C [Compound Z-32] |
| 17.8 |  | C=CC(=O)Nc1cc(Nc2ncc(F)c(-c3cnc4c(cnn4C)c3)n2)c(OC)cc1N1CCC(N(C)C)CC1 [Compound Z-37] |
| 2.2 |  | C=CC(=O)Nc1cc(Nc2ncc(OC)c(-c3cnc4c(cnn4C)c3)n2)c(OC)cc1N1CCC(N(C)C)CC1 [Compound Z-38] |
| 8.25 |  | C=CC(=O)Nc1cc(Nc2ncc(Cl)c(-c3cnc4c(cnn4C)c3)n2)c(OC)cc1N(C)CCN(C)C [Compound Z-39] |
| 17.9 |  | C=CC(=O)Nc1cc(Nc2ncc(Cl)c(-c3cnc4c(cnn4C)c3)n2)c(OC)cc1N1CCC(N(C)C)CC1 [Compound Z-40] |
| 2.2 |  | C=CC(=O)Nc1cc(Nc2ncc(F)c(-c3cnc4c(cnn4C)c3)n2)c(OC)cc1N(C)CCN(C)C [Compound Z-41] |
| 3.8 |  | C=CC(=O)Nc1cc(Nc2ncc(OC)c(-c3cnc4c(cnn4C)c3)n2)c(OC)cc1N(C)CCN(C)C [Compound Z-44] |
| 2.7 | 3 nM | C=CC(=O)Nc1cc(Nc2nccc(-c3ccc4c(ccn4C)c3)n2)c(OC)cc1N(C)CCN(C)C [Compound Z-87] |
| 3.7 | 3 nM | C=CC(=O)Nc1cc(Nc2ncc(Cl)c(-c3ccc4c(ccn4C)c3)n2)c(OC)cc1N(C)CCN(C)C [Compound Z-88] |
| 2.3 |  | C=CC(=O)Nc1cc(Nc2nccc(-c3cnc4c(ccn4C)c3)n2)c(OC)cc1N(C)CCN(C)CC [Compound Z-105] |
| 2 |  | C=CC(=O)Nc1cc(Nc2nccc(-c3cnc4c(ccn4C)c3)n2)c(OC)cc1N(C)CCNC [Compound Z-106] |
| 4 |  | C=CC(=O)Nc1cc(Nc2nccc(-c3cnc4c(ccn4C)c3)n2)c(OC)cc1N(C)CCN(CC)CC [Compound Z-107] |
| 4.7 |  | C=CC(=O)Nc1cc(Nc2ncc(Cl)c(-c3cnc4c(ccn4C)c3)n2)c(OC)cc1N(C)CCN(C)CC [Compound Z-109] |
| 3.1 |  | C=CC(=O)Nc1cc(Nc2nccc(-c3cnc4c(ccn4C)c3)n2)c(OC)cc1N(C)CCN1CCCC1 [Compound Z-112] |
| 8.1 |  | C=CC(=O)Nc1cc(Nc2ncc(Cl)c(-c3cnc4c(ccn4C)c3)n2)c(OC)cc1N1CC(N(C)C)C1 [Compound Z-113] |
| 8.3 | 14 nM | C=CC(=O)Nc1cc(Nc2ncc(Cl)c(-c3cnc4c(ccn4C)c3)n2)c(OC)cc1NCCCN(C)C [Compound Z-114] |
| 3.7 |  | C=CC(=O)Nc1cc(Nc2nccc(-c3cnc4c(ccn4C)c3)n2)c(OC)cc1N(C)CCN(C)C(C)C [Compound Z-115] |
| 6.2 |  | C=CC(=O)Nc1cc(Nc2ncc(Cl)c(-c3cnc4c(ccn4C)c3)n2)c(OC)cc1N(C)CCNC [Compound Z-116] |
| 4 |  | C=CC(=O)Nc1cc(Nc2nccc(-c3cnc4c(ccn4C)c3)n2)c(OC)cc1OCCN(C)C [Compound Z-117] |
| 3 |  | C=CC(=O)Nc1cc(Nc2ncc(F)c(-c3cnc4c(ccn4C)c3)n2)c(OC)cc1OCCN(C)C [Compound Z-118] |
| 4.7 |  | C=CC(=O)Nc1cc(Nc2ncc(Cl)c(-c3cnc4c(c3)c(Cl)cn4C)n2)c(OC)cc1N(C)CCN(C)C [Compound Z-121] |
| 5 |  | C=CC(=O)Nc1cc(Nc2ncc(F)c(-c3cnc4c(c3)c(Cl)cn4C)n2)c(OC)cc1N1CCC(N(C)C)CC1 [Compound Z-122] |
| 3 |  | C=CC(=O)Nc1cc(Nc2ncc(F)c(-c3cnc4c(c3)c(Cl)cn4C)n2)c(OC)cc1N(C)CCN(C)C [Compound Z-123] |
| 3.25 |  | C=CC(=O)Nc1cc(Nc2nccc(-c3cnc4c(ccn4C(C)C)c3)n2)c(OC)cc1N(C)CCN(C)C [Compound Z-124] |
| 7 |  | C=CC(=O)Nc1cc(Nc2ncc(Cl)c(-c3cnc4c(ccn4C(C)C)c3)n2)c(OC)cc1N(C)CCN(C)C [Compound Z-125] |
| 3.5 |  | C=CC(=O)Nc1cc(Nc2ncc(Cl)c(-c3cnc4c(ccn4C4CC4)c3)n2)c(OC)cc1N(C)CCN(C)C [Compound Z-126] |

| SMILES | selectivity ratio | IC50 |
| --- | --- | --- |
| C=CC(=O)Nc1cc(Nc2ncc(Cl)c(-c3cnc4c(ccn4C)c3)n2)c(OC)cc1N(C)CCN(C)C [Compound Z-1, N-(5-(5-chloro-4-(1-methyl-1H-pyrrolo[2,3-b]pyridin-5-yl)pyrimidin-2-amino)-2-((2-(dimethylamino)ethyl)methylamino)-4-methoxyphenyl)acrylamide] | 8.33 |  |
